In this experiment the target is T1, skeletal muscle ryanodine receptor (Oryctolagus cuniculus, UniProt P11716).
T1 construct: Rabbit skeletal muscle triads were prepared as previously described; from tissue; host or cells: rabbit skeletal muscle triads
The experiment can be described thus: [3H]Ryanodine competition binding to rabbit skeletal muscle triads. How it is done:
Rabbit skeletal muscle triads were prepared as previously described (Sharp et al., J. Biol. Chem. 262: 12309-12315 (1987)). […]

The chains behind the UniProt entries cited, without tags or fusion partners. Where a name states a change or a piece, a line headed by the entry shows the natural chain unless it says otherwise.
UniProt P11716: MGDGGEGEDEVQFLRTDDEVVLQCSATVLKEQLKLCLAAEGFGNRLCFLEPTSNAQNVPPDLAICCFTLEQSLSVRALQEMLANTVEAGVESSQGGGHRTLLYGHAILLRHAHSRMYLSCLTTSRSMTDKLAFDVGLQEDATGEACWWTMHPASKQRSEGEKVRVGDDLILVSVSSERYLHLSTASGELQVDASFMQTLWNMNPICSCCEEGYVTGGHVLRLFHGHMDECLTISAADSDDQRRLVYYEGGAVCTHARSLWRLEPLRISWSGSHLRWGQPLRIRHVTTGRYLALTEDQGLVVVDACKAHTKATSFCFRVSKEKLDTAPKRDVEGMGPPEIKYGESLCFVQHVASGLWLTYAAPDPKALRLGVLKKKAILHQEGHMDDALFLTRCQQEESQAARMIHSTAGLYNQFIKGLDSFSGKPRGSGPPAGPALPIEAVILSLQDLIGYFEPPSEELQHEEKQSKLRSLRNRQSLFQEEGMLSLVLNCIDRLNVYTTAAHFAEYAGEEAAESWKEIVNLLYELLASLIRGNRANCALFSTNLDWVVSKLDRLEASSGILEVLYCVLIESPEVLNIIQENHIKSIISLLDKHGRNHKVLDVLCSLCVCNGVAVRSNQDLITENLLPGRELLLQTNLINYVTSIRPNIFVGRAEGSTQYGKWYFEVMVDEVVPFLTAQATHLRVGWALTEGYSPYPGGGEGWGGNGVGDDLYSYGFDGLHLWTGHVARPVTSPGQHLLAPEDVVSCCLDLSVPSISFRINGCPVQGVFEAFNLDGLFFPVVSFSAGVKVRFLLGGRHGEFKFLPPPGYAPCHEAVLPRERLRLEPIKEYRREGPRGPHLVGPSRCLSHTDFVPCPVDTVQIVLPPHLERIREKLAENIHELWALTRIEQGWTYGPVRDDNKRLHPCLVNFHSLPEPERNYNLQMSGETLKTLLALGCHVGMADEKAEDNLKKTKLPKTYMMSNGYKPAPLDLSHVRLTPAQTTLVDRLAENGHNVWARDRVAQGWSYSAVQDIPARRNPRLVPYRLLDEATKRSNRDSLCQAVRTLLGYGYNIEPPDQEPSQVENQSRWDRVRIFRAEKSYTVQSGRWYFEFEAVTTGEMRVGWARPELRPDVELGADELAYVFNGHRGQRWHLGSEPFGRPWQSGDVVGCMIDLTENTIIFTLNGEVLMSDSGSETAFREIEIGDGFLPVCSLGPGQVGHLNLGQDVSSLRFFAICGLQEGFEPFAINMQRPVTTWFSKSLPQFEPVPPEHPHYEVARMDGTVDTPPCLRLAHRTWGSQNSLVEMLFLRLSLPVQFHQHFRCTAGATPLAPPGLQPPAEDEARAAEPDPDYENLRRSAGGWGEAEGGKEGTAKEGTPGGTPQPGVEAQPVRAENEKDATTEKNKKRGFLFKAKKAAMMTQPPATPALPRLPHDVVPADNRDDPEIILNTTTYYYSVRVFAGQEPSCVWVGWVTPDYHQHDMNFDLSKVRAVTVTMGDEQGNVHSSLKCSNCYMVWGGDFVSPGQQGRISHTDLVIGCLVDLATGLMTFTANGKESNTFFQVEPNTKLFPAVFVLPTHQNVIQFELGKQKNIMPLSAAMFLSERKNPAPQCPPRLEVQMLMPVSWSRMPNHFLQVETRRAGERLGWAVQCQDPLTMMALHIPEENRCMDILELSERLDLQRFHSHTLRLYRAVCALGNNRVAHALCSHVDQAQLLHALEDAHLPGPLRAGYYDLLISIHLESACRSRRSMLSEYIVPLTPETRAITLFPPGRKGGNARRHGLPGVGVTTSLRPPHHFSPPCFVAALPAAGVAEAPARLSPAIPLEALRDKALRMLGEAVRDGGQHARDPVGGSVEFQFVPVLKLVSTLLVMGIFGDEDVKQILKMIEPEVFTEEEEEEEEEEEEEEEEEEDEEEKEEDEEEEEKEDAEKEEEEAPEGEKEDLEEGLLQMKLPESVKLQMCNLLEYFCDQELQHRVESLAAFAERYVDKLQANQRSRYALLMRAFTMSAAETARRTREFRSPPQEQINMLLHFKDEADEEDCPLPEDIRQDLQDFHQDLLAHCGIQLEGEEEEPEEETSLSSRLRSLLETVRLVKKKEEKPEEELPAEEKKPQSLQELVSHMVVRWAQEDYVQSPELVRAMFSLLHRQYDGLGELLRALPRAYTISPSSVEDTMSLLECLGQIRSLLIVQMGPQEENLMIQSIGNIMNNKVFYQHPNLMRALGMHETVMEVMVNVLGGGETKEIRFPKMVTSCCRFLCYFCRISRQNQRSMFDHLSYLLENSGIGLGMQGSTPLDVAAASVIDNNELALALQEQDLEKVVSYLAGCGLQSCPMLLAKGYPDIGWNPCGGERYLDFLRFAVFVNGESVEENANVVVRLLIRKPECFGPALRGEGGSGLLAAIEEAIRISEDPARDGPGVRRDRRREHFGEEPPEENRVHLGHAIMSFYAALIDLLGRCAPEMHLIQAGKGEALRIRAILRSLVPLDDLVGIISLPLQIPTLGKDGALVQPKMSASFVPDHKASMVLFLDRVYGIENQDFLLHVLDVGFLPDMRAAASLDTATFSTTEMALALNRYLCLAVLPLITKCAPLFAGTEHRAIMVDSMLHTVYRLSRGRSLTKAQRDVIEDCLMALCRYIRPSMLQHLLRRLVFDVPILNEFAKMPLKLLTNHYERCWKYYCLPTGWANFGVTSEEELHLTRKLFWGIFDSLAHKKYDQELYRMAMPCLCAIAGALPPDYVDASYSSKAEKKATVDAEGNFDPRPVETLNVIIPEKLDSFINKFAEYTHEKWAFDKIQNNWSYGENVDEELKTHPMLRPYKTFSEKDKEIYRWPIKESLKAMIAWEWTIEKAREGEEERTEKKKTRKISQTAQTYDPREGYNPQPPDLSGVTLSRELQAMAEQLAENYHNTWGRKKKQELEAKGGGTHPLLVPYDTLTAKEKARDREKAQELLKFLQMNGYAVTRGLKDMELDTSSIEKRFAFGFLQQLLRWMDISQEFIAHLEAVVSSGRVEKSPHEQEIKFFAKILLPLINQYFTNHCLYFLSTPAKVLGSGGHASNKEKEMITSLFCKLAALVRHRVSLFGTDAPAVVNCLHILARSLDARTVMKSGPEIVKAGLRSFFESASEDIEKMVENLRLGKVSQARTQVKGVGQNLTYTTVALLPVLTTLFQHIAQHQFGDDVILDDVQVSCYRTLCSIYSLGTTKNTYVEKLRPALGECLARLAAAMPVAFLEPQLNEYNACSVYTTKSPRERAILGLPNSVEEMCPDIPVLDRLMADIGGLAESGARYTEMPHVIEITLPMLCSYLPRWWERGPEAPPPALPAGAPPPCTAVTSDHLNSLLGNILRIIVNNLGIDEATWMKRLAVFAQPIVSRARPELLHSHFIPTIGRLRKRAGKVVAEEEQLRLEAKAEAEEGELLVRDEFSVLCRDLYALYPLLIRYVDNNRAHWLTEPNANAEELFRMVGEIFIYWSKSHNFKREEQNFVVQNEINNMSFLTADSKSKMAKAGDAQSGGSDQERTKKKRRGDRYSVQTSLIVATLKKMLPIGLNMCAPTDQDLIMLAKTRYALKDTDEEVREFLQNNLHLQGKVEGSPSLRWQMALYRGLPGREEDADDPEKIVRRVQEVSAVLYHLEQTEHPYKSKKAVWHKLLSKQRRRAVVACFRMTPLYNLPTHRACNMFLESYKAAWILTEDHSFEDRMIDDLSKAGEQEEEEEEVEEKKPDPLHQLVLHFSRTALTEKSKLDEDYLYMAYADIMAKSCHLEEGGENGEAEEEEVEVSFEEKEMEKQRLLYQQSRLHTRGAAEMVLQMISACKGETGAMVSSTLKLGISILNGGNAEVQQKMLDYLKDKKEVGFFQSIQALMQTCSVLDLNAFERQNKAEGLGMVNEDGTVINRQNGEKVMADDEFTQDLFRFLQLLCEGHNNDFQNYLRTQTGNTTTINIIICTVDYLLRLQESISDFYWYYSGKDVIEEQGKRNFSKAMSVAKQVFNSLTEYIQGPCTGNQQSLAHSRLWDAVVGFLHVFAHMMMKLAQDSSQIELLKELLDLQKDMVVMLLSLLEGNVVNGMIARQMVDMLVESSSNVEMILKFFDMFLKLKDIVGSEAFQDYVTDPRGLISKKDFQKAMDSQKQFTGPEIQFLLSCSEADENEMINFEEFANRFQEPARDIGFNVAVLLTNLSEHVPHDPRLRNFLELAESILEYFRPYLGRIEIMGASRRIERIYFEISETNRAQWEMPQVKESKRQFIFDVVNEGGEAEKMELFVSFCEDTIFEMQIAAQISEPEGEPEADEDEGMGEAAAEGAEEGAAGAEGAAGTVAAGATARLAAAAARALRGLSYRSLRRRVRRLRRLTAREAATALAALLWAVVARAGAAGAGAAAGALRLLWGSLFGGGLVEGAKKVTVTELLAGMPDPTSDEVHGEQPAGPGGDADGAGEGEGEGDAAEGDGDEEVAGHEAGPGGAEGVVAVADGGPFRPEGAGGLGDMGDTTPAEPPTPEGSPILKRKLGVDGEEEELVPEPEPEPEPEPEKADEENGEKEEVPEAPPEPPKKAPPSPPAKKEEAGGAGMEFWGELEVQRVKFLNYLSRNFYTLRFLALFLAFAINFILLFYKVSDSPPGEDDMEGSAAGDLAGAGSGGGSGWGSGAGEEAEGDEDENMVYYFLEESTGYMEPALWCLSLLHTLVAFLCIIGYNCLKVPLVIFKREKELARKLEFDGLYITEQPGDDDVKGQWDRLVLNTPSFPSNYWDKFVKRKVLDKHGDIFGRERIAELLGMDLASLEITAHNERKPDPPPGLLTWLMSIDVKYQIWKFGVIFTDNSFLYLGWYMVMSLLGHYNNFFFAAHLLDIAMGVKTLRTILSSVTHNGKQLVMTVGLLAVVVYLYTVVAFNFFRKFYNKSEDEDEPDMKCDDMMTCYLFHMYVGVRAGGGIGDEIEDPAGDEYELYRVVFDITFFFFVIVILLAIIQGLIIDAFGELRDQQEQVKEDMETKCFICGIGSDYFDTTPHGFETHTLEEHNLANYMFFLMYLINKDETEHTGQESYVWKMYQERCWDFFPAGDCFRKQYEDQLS

Each structure is given as a SMILES string.

Results on one compound are retold here after patent US5492839A, “Immunogenic ryanodine derivative and related uses” (priority 1994, dated 1996).

As to `CC1CCC2(O)C3(C)CC4(O)OC2(C1O)C1(O)C3(O)C(OC(=O)c2ccc[nH]2)C(O)(C(C)C)C41C` (stereo not shown) [Ryanodine], the IC50 was approximately 20 nM.

A word on the IC50: it is the midpoint of a concentration-inhibition curve. Low readings indicate greater potency, high ones weaker potency.
